Bioassay records deposited in PubChem by several laboratories.
The list is not random: actives were taken first. Their share in the collection is about 2.1%.
Rev-erbA mod – Rev-erb alpha (human) modulation; P20393; Rev-erbα–FITC-DNA binding, fluorescence polarization, 90 min; activity, % at 10 µM; actives 0.79% (n = 370,000); AID 1259318;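 active = activity above about 14%, limit read from the data; passing the limit was not always enough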;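 note: 0% = DMSO wells with 35 nM protein and 100% = DMSO wells with 750 nM protein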
PDI turbidity – blocks human protein disulfide isomerase activity. P07237. PDI insulin aggregation turbidity, A650, 90 min. inhibition, % at 10 µM. actives 0.052% (n = 350,000). AID 588391;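 active = mean inhibition across replicates of 30% or more, whatever share of single replicates reach that level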
SMARCA2 act – activators of SMARCA2 function. MG213 cells, MMTV-luciferase reporter, dexamethasone, overnight. activation, % at 9.1 µM. actives 1% (n = 370,000). AID 652017; in the data active = activation above about 7.8%;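 note: 0% = vehicle wells and 100% = reference activator wells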
INS-1E GSIS act – primary screen for activators of insulin secretion dependent on glucose, INS-1E cells, GLuc reporter luminescence; actives 0.61% (n = 370,000); activation, % at 16.6 µM; INS-1E GLuc reporter insulin secretion, 2-3 h;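 active = lowest replicate activation of at least 40%, so every replicate reaches that level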;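 note: 0% = median of neutral control wells and 100% = median of IBMX positive control wells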
ERp5 block – inhibitors of human ERp5. actives 0.05% (n = 350,000). inhibition, % at 9.99 µM. ERp5 insulin aggregation, absorbance 650 nm, 90 min. Q15084;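 active = mean replicate inhibition above about 25%, with every replicate also reaching it, limit read from the data, passing the limit was not always enough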
UUG fidelity – modulators of yeast start codon fidelity, primary screen, whole organism, S. cerevisiae, single point, plate reader; S. cerevisiae UUG-firefly luciferase reporter, luminescence/redox ratio; activity score, % at 18.7 µM; 0.13% of 350,000 active; AID 602363, 2012;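 active = replicate mean at a twofold rise or more, about +100% in these data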;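 also: firefly luciferase made from a UUG start codon reports start codon fidelity; reporter light over untreated wells divided by growth signal over untreated wells; some hits fall short of that in this replicate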
Rev-erbA confirm – Rev-erb alpha (human) modulation, hit confirmation | AID 1259319 | activation, % at 25 µM | Rev-erb alpha FITC-DNA binding, fluorescence polarization, 90 min | shares compounds with Rev-erbA mod | actives 61% (n = 3,000);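 active = activation at or above a set limit, or at least 3 SD above the negative control mean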;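 note: 0% = 35 nM protein with DMSO and 100% = 750 nM protein high control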
RORg counter – affects RORgamma DNA binding in a Rev-erb alpha counter-screen. shares compounds with Rev-erbA mod. purified RORgamma protein-FITC-DNA binding, fluorescence polarization. IC50, µM. actives 8% (n = 910);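 active = Compounds whose fitted half-maximal concentration for disrupting protein-DNA binding is below 10 micromolar; the record names Rev-erb in its text, so the target is in doubt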
* = called active by the depositor; i = inactive; nt = no result.

Results follow in this order: Rev-erbA mod | PDI turbidity | SMARCA2 act | INS-1E GSIS act | ERp5 block | UUG fidelity | Rev-erbA confirm | RORg counter
> COc1ccc(-n2c(COc3ccc(C)cc3)nnc2SCC(=O)c2ccc(-c3ccccc3)cc2)cc1
  45* | nt | 0 | nt | nt | nt | 28* | nt
> COc1ccc(NC(=O)CSc2nnc3ccc(-c4ccccn4)nn23)cc1
  3 | 10 | 0 | 38 | -9 | -13 | nt | nt
> CC(=O)N1[C@H](CO)[C@H](c2ccc(-c3cccc(F)c3)cc2)[C@H]1CNC(=O)C1CC1
  nt | nt | nt | -3 | nt | -6 | nt | nt
> Cc1cc2oc(=O)cc(COC(=O)c3n[nH]c4ccccc34)c2cc1C
  23* | -6 | 3 | 17 | nt | -2 | -1 | nt
> CCN1/C(=C/c2ccc3cc(C)ccc3[n+]2CC)Sc2cc(C)c(C)cc21
  20* | -4 | -8 | -50 | -1 | nt | 22* | nt
> CC[n+]1c(/C=C2\Sc3ccccc3N2C)ccc2cccc(C)c21
  nt | -9 | -10 | -40 | -8 | 46 | nt | nt
> CC[n+]1ccccc1/C=C1\Sc2ccc(C)cc2N1C
  5 | 15 | -5 | -60 | 4 | -11 | nt | nt
> CCN1/C(=C/c2ccc3cc(C)ccc3[n+]2CC)Sc2ccccc21
  111* | -4 | -7 | -41 | 3 | nt | 101* | >40
> CNC[C@H]1Oc2c(cccc2N(C)C)C(=O)N(C)C[C@@H]1C
  nt | nt | nt | 11 | nt | nt | nt | nt
> O=C(CCCn1c(=S)[nH]c2cc3c(cc2c1=O)OCO3)NCc1ccccc1Cl
  50* | -5 | -3 | 9 | -12 | -13 | 33* | >40

Laid out differently: two of the compounds above
> CCN1/C(=C/c2ccc3cc(C)ccc3[n+]2CC)Sc2ccccc21
  Rev-erbA mod: 111*; PDI turbidity: -4; SMARCA2 act: -7; INS-1E GSIS act: -41; ERp5 block: 3; UUG fidelity: nt; Rev-erbA confirm: 101*; RORg counter: >40

> CC(=O)N1[C@H](CO)[C@H](c2ccc(-c3cccc(F)c3)cc2)[C@H]1CNC(=O)C1CC1
  Rev-erbA mod: nt; PDI turbidity: nt; SMARCA2 act: nt; INS-1E GSIS act: -3; ERp5 block: nt; UUG fidelity: -6; Rev-erbA confirm: nt; RORg counter: nt

(listing goes on)
Results follow in this order: Rev-erbA mod | PDI turbidity | SMARCA2 act | INS-1E GSIS act | ERp5 block | UUG fidelity | Rev-erbA confirm | RORg counter
> CCCn1c(=S)[nH]c2cc(C(=O)NCc3ccccc3OC)ccc2c1=O
  36* | 0 | -2 | -8 | -3 | -13 | 27* | nt
> COC(CNC(=O)c1ccc2c(=O)n(Cc3ccc4c(c3)OCO4)c(=S)[nH]c2c1)OC
  3 | -3 | -1 | nt | 5 | -15 | nt | nt
> COC(CNC(=O)c1ccc2c(=O)n(Cc3ccc(Cl)cc3)c(=S)[nH]c2c1)OC
  29* | -5 | -2 | nt | 4 | -16 | 12 | nt
> O=C(NCc1ccccc1Cl)c1ccc2c(=O)n(CCCN3CCCC3=O)c(=S)[nH]c2c1
  29* | -3 | -3 | nt | nt | 34 | 18* | nt
> C[C@@H]1CN([C@@H](C)CO)C(=O)c2cc(NC(=O)Nc3ccc(C(F)(F)F)cc3)ccc2O[C@@H](C)CCCCO[C@@H]1CN(C)Cc1ccc(C(=O)O)cc1
  nt | nt | nt | 6 | 4 | 4 | nt | nt
> COc1ccc(CN(C)C[C@H]2Oc3ccc(NC(=O)Cc4ccccc4)cc3CC(=O)N([C@@H](C)CO)C[C@H]2C)cc1
  nt | nt | nt | -2 | -3 | nt | nt | nt
> COc1cccc(CNC(=O)CCCn2c(=S)[nH]c3cc4c(cc3c2=O)OCO4)c1
  86* | 2 | 3 | nt | 11 | -1 | 57* | >40
> COc1cc(OC)c(N(C)S(=O)(=O)c2cccc(C(=O)OCc3c(C)noc3C)c2)cc1Cl
  23* | 1 | -4 | -4 | -2 | nt | 37* | i
> COc1ccc(C)cc1NC(=O)c1cc2c(=O)n3ccccc3nc2n1C
  23* | 2 | -3 | 4 | -3 | 0 | 55* | >40
> C[C@@H]1CN([C@@H](C)CO)C(=O)c2cc(NC(=O)NC3CCCCC3)ccc2O[C@@H](C)CCCCO[C@H]1CN(C)S(=O)(=O)c1cccs1
  nt | nt | nt | 5 | nt | -14 | nt | nt
> CCOc1ccc(-n2c([S-])c(C(=O)Nc3ccc(S(=O)(=O)N4CCOCC4)cc3)[n+]3cc(C(N)=O)ccc23)cc1
  91* | 0 | 3 | -2 | 3 | nt | 43* | >40
> CSc1ccc(/C=C(\C#N)C(=O)Nc2cccc(C)c2)cc1
  22* | -4 | 2 | -5 | 5 | 1 | 10 | nt
> CSc1ccc(/C=C(\NC(=O)c2ccc(C)cc2)C(=O)Nc2cccc(C)c2)cc1
  -2 | -8 | -2 | -2 | nt | -2 | nt | nt
> COc1ccc(Cl)cc1C(=O)Nc1cccc(-c2ccc3nncn3n2)c1
  128* | 0 | -2 | 43* | 3 | nt | 183* | >40
> COc1cc(F)cc(-c2ccc3c(c2)c(-c2cccs2)c(-c2cc(OC)cc(OC)c2)n3C)c1
  4 | -1 | 0 | -5 | -7 | -17 | nt | nt
